Test results from US20030181404A1 (BETH ISRAEL DEACONESS MEDICAL CENTER, published 2003).

Biological target: T1, HRG-activated ErbB-2 receptor (tyrosine-phosphorylated 185 kD protein) (human (human breast cancer cell lines), UniProt P04626, tyrosine-phosphorylated upon HRG stimulation (sites not given))
T1 construct: Endogenous full-size protein from detergent lysates of cells stimulated with 10 nM heregulin; also called p185 ErbB-2; neu/HER-2
Experiment: GST pull-down from HRG-stimulated T47D lysates, immunoblot

B1: GST protein alone (other, UniProt P08515 1-218, looked up)
chain: MSPILGYWKIKGLVQPTRLLLEYLEEKYEEHLYERDEGDKWRNKKFELGLEFPNLPYYIDGDVKLTQSMAIIRYIADKHNMLGGCPKERAEISMLEGAVLDIRYGVSRIAYSKDFETLKVDFLSKLPEMLKMFEDRLCHKTYLNGDHVTHPDFMLYDALDVVLYMDPMCLDAFPKLVCFKKRIEAIPQIDKYLKSSKYIAWPLQGWQATFGGGDHPPK
notes: Control
binding result: no binding
